Screens deposited in PubChem BioAssay by National Center for Advancing Translational Sciences (NCATS).
Rows were chosen to be rich in hits. Some 1.3% of all compounds tested hit in one or more screens of this group.
12-LOX inh: ALOX12 (human) lipoxygenase inhibition; P18054; purified 12hLO, xylenol orange hydroperoxide absorbance; Potency, µM (highest dose often 108 µM), for the others: at the top dose activity change, negative = inhibition, hits mostly inhibitors; 580,000 compounds, 1.1% hits; AID 1671190; also: potency is read from the fitted curve at half-maximal effect; % is scaled to controls: 0 for no effect and ±100 for the full control effect
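Hydroperoxide product was detected by ferrous iron/xylenol orange as the 573 to 405 nm absorbance ratio. Arachidonic acid at 40 uM (final) was turned over for 30 min at room temperature by 150 nM human 12hLO, pH 7.0 Hepes buffer, after 15 min compound preincubation.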
miR-21 reporter: miR-21 reporter, rising signal; HeLa miR-21 FLuc reporter, luciferase, 48 h; Potency, µM (top dose mostly 38.3 µM), without a hit: at the top dose reporter change, positive = more light; 340,000 tested, under 10 active; active = well fitted rising curve with a large enough effect; inconclusive = small, poorly fitted or top-dose-only effect; inactive = no such curve, though single readings can be large or run the other way;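 note: % of control where 0% means no effect; miR-21 action dims this reporter so a rising signal means less miR-21 action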
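Compounds were titrated across several concentrations (up to approximately 40 uM) and incubated 48 hours with HeLa miR-21-FLuc reporter cells (miR-21 target sequence downstream of FLuc, endogenous miR-21). Readout was firefly luciferase luminescence after lytic detection reagent.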
PTHR1 agonist: activates the human parathyroid hormone receptor PTHR1; 410,000 compounds, 0.075% hits; HEK293 GP2 PTHR1 cells, GloSensor cAMP luminescence, 1 h; Potency, µM (highest dose often 115 µM), without a hit: top-dose activation, hits mostly activators; Q03431; also: potency is read from the fitted curve at half-maximal effect; nearly all actives have a fitted effect of over 55% in size
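HEK-293-derived GP2 cells expressing PTHR1 and a GloSensor cAMP reporter, 3,000/well, plated overnight, given luciferin plus IBMX (each 0.5 mM as added) for 1 h at 37 °C, then compound for 1 h at 37 °C. Luminescence was read after 15 min at room temperature.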
PINK1 modulator: PINK1 expression modulation | PINK1 immunofluorescence, high-content cytometry, 24 h | Potency, µM (series often up to 76.6 µM), without a hit: top-dose activation (PINK1 increase), hits mostly activators | 410,000 compounds, 0.2% hits; active = well fitted activation curve with a large enough effect; inconclusive = small, poorly fitted or top-dose-only effect; cell line not stated here; also: potency is read from the fitted curve at half-maximal effect; % of control where 0% means no effect; nearly all actives have a fitted effect of over 65% in size
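Cells are seeded, rested 12 hours, then given compound at five concentrations or DMSO for 24 hours. After fixation, blocking and antibody staining, PINK1 amount and mitochondrial localization are scored; CCCP serves as control.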
Giardia killer: Giardia lamblia killing; Giardia lamblia trophozoite viability; activity change, % at 7.66 µM, hits read low; 340,000 compounds, 0.15% hits; in the data active = activity change below about -80%; inconclusive = between about -30% and that limit;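 also: parasites exposed to compound for two days anaerobically before the ATP read; % is scaled to controls: 0 for no effect and ±100 for the full control effect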
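Anaerobic 48 hrs incubation at 37 deg C of 100 trophozoites/well with test compounds; ATPLite 1-Step luminescence, 15-30 min RT, reports cellular ATP as viability.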
ERG Ets-DNA blk: ERG Ets/DNA interaction inhibition; fluorescence polarization, His-ERG Ets domain / labelled DNA; Potency, µM (titrated, usually from 76.9 µM), for inactives: top-dose FP activity, negative = inhibition, actives largely listed as inhibitors; 370,000 compounds, 0.028% hits; AID 624246; active = well fitted inhibition curve with a large enough effect in the polarisation, with a control signal flat; inconclusive = small, poorly fitted or top-dose-only effect, or effect the other way, or a change in a side signal; inactive = no such curve, though single readings can be large or run the other way; the % refers to the polarisation;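 also: polarization taken with two DNA probes labelled with fluorescein and Texas red; potency is read from the fitted curve at half-maximal effect; % of control where 0% means no effect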
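His-tagged ERG Ets domain (1 uM in the protein solution; 300mM KCl, 50mM Tris-HCl, 1mM EDTA, 1mM DTT, pH 7.5) received compound, then a probe mix of 5 nM fluorescein-DNA and 100nM Texas-615-DNA. Fluorescence polarization was read for both dyes.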
An asterisk follows results filed as active; i = inactive; ? = inconclusive; · = no result given; [ ] = another dose, or the depositor's remark. Unless noted, calls follow the shape of the dose curve; as a rule, active = well fitted curve in the direction sought with a large enough effect; inconclusive = small, poorly fitted or top-dose-only effect, or another doubt; inactive = no such curve, though single readings can be large; an effect the other way counts as inactive or inconclusive.

entry	mol	12-LOX inh	miR-21 reporter	PTHR1 agonist	PINK1 modulator	Giardia killer	ERG Ets-DNA blk
1	COc1ccc2c(c1)c(C(=O)CNc1nc(C)cs1)c(C)n2C	8.9µM*	-7%	-5%	4%	-5	-2%
2	CCOC(=O)C1CCCN(C(=O)CN2C(=O)NC(C)(c3ccc4ccccc4c3)C2=O)C1 (stereo not given)	16%	·	18%	-2%	24	-6%
3	O=C(N1CCN(Cc2ccccc2)CC1)C(F)(F)C(F)(F)C(F)(F)C(F)(F)F	28µM*	·	·	·	·	·
4	O=C(c1ccccc1)N1CCN(Cc2ccccc2)CC1	?	-20%	-17%[57.5 µM]	·	3	·
5	COc1c(OC(C)=O)ccc(/C=C/c2ccc3ccccc3n2)c1[N+](=O)[O-]	-17%	-43%	-37%[57.5 µM]	10µM*	4	0%
6	COc1c(OC(C)=O)ccc(/C=C/c2ccc3cccc(OC)c3n2)c1[N+](=O)[O-]	-3%	-41%	-40%	2%	6	-2%
7	CCOc1ccc2oc(C(=O)N(C)CCc3ccc(OC)c(OC)c3)c(C)c2c1	-25%	·	i	0%	-18	6%
8	CCCc1c(C)nc2ccc(Cl)cc2c1-c1ccccc1	1.8µM*	·	·	·	·	·
9	COc1ccc(NC(=S)NN2CCN(C)CC2)cc1OC	-6%	-4%	i	-1%	4	·
10	Cn1c(-c2cc3c(C(F)(F)F)nn(C)c3s2)n[nH]c1=S	?	-16%	i	0%	6	-3%
11	CCn1c(-c2cc3c(C(F)(F)F)nn(C)c3s2)n[nH]c1=S	10µM*	-16%	-1%[57.5 µM]	-44%[38.3 µM]	-4	-9%
12	Cc1ccc(C(=O)Nc2cc3c(cc2SCc2ccco2)n(C)c(=O)n3C)cc1	7.9µM*	·	·	·	·	·
13	O=C(Cn1ncc2c(=O)oc3ccccc3c21)NCc1ccccc1Cl	-20%	-3%	-5%	0%	·	0%
14	CCn1nccc1C(=O)N1CCC2(CC1)NC(=O)N(c1cccc(F)c1)N2	4µM*	·	·	·	·	·
15	COc1ccc(C(=O)N2CCC3(CC2)CC(O)CCO3)cc1F (stereo not given)	27%	·	·	·	·	·
16	O=C(c1cc(C2CC2)[nH]n1)N1CCC2(CC1)NC(=O)N(c1cccc(F)c1)N2	11µM*	·	·	·	·	·
17	COc1cccc(C(=O)N2CCC3(CC2)NC(=O)N(c2cccc(F)c2)N3)c1OC	3.2µM*	·	·	·	·	·
18	COc1ccc(C(=O)N2CCC3(CC2)NC(=O)N(c2cccc(F)c2)N3)cc1F	2µM*	·	·	·	·	·
19	COc1cccc(C(=O)N2CCN(c3cc(-c4ccc(F)cc4)[nH]n3)CC2)c1OC	-1%	·	·	·	·	·
20	CCn1nccc1C(=O)N1CCC2(CC1)N(Cc1cccc(F)c1)C(=O)CS2=O (stereo not given)	29%	·	·	·	·	·
21	COc1ccccc1CC(=O)NC1CCN(c2cc(C)cc(C)c2)C1=O (stereo not given)	6%	·	·	·	·	·
22	N#CC1=C2SC=C(c3ccc(Br)cc3)N2CCCC1=O	?	-45%	-31%	2%	9	17%
23	CCOC(=O)N1CCN(C(c2ccccc2)c2sc3nc(C)nn3c2O)CC1 (stereo not given)	16%	2%	-14%[57.5 µM]	-2%[38.3 µM]	2	·
24	O=C(Oc1ccccc1N1C(=O)C2CCCCC2C1=O)c1ccccc1 (stereo not given)	0%	-1%	i	1%	13	-6%
25	Cc1ccc(CSc2nnc(-c3cccnc3)n2N)cc1	0%	0%	?	-6%[38.3 µM]	10	5%
26	Cc1ccc(C(=O)N2CCC3(CC2)NC(=O)N(c2ccc(F)cc2)N3)s1	2µM*	·	·	·	·	·
27	COc1cccc(C(=O)N2CCN(C(=O)c3cccc4ccccc34)CC2)c1OC	-15%	-3%	i	-3%	-11	-5%
28	Cc1ccc(C(=O)N2CCSCC2)s1	14%	·	·	·	·	·
29	COc1cccc(C(=O)N2CCC3(CC2)NC(=O)N(c2ccc(F)cc2)N3)c1OC	4µM*	·	·	·	·	·
30	COc1ccccc1C(=O)N1CCC2(CC1)NC(=O)N(c1cccc(F)c1)N2	2.5µM*	·	·	·	·	·
31	COc1ccccc1CC(=O)N1CCC2(CC1)NC(=O)N(c1cccc(F)c1)N2	1.8µM*	·	·	·	·	·
32	CC(=O)N1CCC2(CC1)NC(=O)N(c1ccccc1)N2	?	-4%	i	-1%	-30	8%
33	COc1ccccc1C(=O)N1CCC2(CC1)NC(=O)N(Cc1ccc(F)cc1)C2=O	19%	·	·	·	·	·
34	CC(C)CC(c1nnnn1C(C)(C)C)N1CCN(Cc2ccccc2)CC1 (stereo not given)	10µM*	-1%	-6%	-2%	11	1%[15.4 µM]
35	Cc1cc2c(c(=O)n(-c3ccccc3)c(=O)n2CC(=O)Nc2cccc(F)c2)n1C	17%	·	·	·	·	·
36	COc1ccc(NC(=O)c2sc3nc(C(F)(F)F)cc(C)c3c2N)cc1OC	-23%	0%	-48%	40µM*	·	1%
37	Cc1cc(C)c2c(N)c(C(=O)Nc3ncc(C)s3)sc2n1	0%[57.4 µM]	?	-15%[57.5 µM]	-1%	-108*	4%
38	CCOC(=O)c1ccc(NC(=O)c2c(C)nn(-c3ccc(F)cc3)c2-n2cccc2)cc1	-22%	1%	-1%	3%	·	-3%
39	O=Cc1cc(Cl)c(O)c(Cl)c1	49%	·	·	·	·	·
40	O=Cc1cc(Br)cc(Cl)c1O	45µM*	·	·	·	·	·
41	Cc1nnc(SCC(=O)Nc2ccccc2)n1CCc1ccccc1	-6%	-2%	i	2%[38.3 µM]	-4	·
42	COCc1nnc(NC(=O)C2CC(=O)N(C3CCCC3)C2)s1 (stereo not given)	-24%	0%	i	0%	4	15%

2 consecutive entries already listed:
entry	mol	12-LOX inh	miR-21 reporter	PTHR1 agonist	PINK1 modulator	Giardia killer	ERG Ets-DNA blk
41	Cc1nnc(SCC(=O)Nc2ccccc2)n1CCc1ccccc1	-6%	-2%	i	2%[38.3 µM]	-4	·
42	COCc1nnc(NC(=O)C2CC(=O)N(C3CCCC3)C2)s1 (stereo not given)	-24%	0%	i	0%	4	15%

Filtered by structure: the compounds so far with a Cl atom.
entry	mol	12-LOX inh	miR-21 reporter	PTHR1 agonist	PINK1 modulator	Giardia killer	ERG Ets-DNA blk
8	CCCc1c(C)nc2ccc(Cl)cc2c1-c1ccccc1	1.8µM*	·	·	·	·	·
13	O=C(Cn1ncc2c(=O)oc3ccccc3c21)NCc1ccccc1Cl	-20%	-3%	-5%	0%	·	0%
39	O=Cc1cc(Cl)c(O)c(Cl)c1	49%	·	·	·	·	·
40	O=Cc1cc(Br)cc(Cl)c1O	45µM*	·	·	·	·	·
